{
  "sequences": {"note": "Protein sequences, listed by entry. Tags and fused reporters are not part of them.", "UniProt P31652, whole entry": "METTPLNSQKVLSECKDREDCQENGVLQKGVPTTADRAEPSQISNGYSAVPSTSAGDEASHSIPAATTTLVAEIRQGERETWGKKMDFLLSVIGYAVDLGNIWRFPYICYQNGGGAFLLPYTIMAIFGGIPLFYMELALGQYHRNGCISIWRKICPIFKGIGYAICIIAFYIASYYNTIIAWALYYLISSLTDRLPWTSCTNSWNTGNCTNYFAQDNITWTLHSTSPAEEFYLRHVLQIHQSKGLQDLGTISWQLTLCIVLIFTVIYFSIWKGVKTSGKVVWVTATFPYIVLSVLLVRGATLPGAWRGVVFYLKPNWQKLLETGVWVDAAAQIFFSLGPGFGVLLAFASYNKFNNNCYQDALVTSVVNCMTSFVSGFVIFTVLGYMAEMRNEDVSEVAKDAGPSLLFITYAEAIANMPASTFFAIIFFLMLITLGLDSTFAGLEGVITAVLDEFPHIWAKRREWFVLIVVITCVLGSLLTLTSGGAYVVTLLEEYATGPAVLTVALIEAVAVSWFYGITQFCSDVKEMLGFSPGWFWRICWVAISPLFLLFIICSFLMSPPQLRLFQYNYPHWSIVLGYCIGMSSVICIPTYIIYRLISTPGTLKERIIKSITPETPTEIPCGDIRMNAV"},
  "source": "patent US20070122395A1",
  "about": "“Genetic and pharmacological regulation of antidepressant-sensitive biogenic amine transporters through PKG/p38 map kinase” (Vanderbilt University, priority 2005, published 2007)",
  "key": {"[1]": {"system": "native SERT in human platelets", "conditions": "anisomycin 1 μm, 10 min"}, "hSERT": {"system": "hSERT", "conditions": "CHO cells, 10-min anisomycin"}, "SERT in RBL-2H3 cells": {"target": "T1, SERT in RBL-2H3 cells (Rattus norvegicus, UniProt P31652)", "T1 construct": "As with rat SERT expressed by RBL-2H3 cells; host or cells: RBL-2H3 cells (intact cells, 4° C.)", "test": "[125I]RTI-55 binding to intact RBL-2H3 cells", "assay_type": "cell-based"}, "[2]": {"target": "T2, native SERT in RN46A cells (Rattus norvegicus, UniProt P31652)", "T2 construct": "derived from rat E13 raphenucleus, that expresses native SERT; endogenous in cells; host or cells: RN46A cells", "test": "[3H]5-HT transport assay in RN46A cells", "assay_type": "cell-based"}, "[3]": {"system": "lymphocytes homozygous for the Gly variant (hSERT Gly56)", "test": "5-HT uptake in genotyped lymphocyte lines", "assay_type": "cell-based, human"}, "[4]": {"system": "Ala56 homozygous lymphocyte lines", "test": "5-HT uptake in genotyped lymphocyte lines", "assay_type": "cell-based, human"}, "[5]": {"system": "rat SERT expressed by RBL-2H3 cells", "test": "[3H]5-HT transport assay in RBL-2H3 cells", "assay_type": "cell-based"}, "[6]": {"system": "Gly56Ala heterozygous lymphocytes", "test": "5-HT uptake in genotyped lymphocyte lines", "assay_type": "cell-based, human", "conditions": "Gly56Ala heterozygous cells"}, "[7]": {"system": "native SERT in human platelets", "conditions": "Zhu et al. (2004a); cited from earlier work"}},
  "note": "Like-named read-outs stand apart in the source and are kept apart here.",
  "data": [
    {"compound": "COc1ccc(C[C@H]2NC[C@H](O)[C@H]2OC(C)=O)cc1", "note": "[anisomycin]", "values": [
      {"measurement": "5-HT uptake after anisomycin", "setting": "[1]", "result": "SB203580-sensitive increase in 5-HT uptake"},
      {"measurement": "anisomycin-modulated 5-HT uptake", "setting": "hSERT", "result": "SB203580-sensitive elevation in 5-HT uptake"},
      {"measurement": "total SERT (paroxetine-displaceable [125I]RTI-55 binding)", "setting": "SERT in RBL-2H3 cells; acute treatment", "result": "does not change"},
      {"measurement": "SERT surface density (5-HT-displaceable [125I]RTI-55 binding)", "setting": "SERT in RBL-2H3 cells; anisomycin 1 μm, fostriecin 5 nM, NECA 1 μm, 10 min", "result": "does not impact"},
      {"measurement": "stimulation of 5-HT transport", "setting": "[2]; 10 min treatment", "result": "dose-dependently stimulated 5-HT uptake"},
      {"measurement": "change in maximal transport capacity (Vmax)", "setting": "[2]; anisomycin", "result": "no significant change"},
      {"measurement": "Km", "setting": "[2]; read-out: SERT Km for 5-HT, anisomycin 1 μm 10 min", "result": "0.396 ± 0.08", "unit": "µM"},
      {"measurement": "stimulation of 5-HT transport", "setting": "[3]", "result": "stimulated uptake activity"},
      {"measurement": "sensitivity of 5-HT uptake to activator", "setting": "[4]", "result": "lacked sensitivity"},
      {"measurement": "concentration at which effect became inhibitory", "setting": "[5]; 10-min pretreatment", "result": 25, "unit": "μm"},
      {"measurement": "concentration of peak stimulation", "setting": "[5]; 10-min pretreatment", "result": 1, "unit": "μm"},
      {"measurement": "change in maximal transport capacity (Vmax)", "setting": "[5]; RBL-2H3, anisomycin", "result": "no significant change"},
      {"measurement": "stimulation of 5-HT transport activity", "setting": "[5]; RBL-2H3, anisomycin, H2O2 20 μm", "result": "dose- and time-dependent stimulation"},
      {"measurement": "time of decline to basal levels", "setting": "[5]; anisomycin 1 μm", "result": "≤ 30", "unit": "min"},
      {"measurement": "time of peak stimulation of 5-HT transport", "setting": "[5]; anisomycin 1 μm", "result": 10, "unit": "min"},
      {"measurement": "Km", "setting": "[5]; read-out: SERT Km for 5-HT, RBL-2H3, anisomycin 1 μm 10 min", "result": "0.628 ± 0.07", "unit": "µM"},
      {"measurement": "sensitivity of 5-HT uptake to activator", "setting": "[6]", "result": "intermediate sensitivity"},
      {"measurement": "5-HT uptake after anisomycin", "setting": "[7]", "result": "stimulated 5-HT uptake in platelets"}
    ]}
  ]
}
